In test [1] the target is human A1 adenosine receptor (Homo sapiens (Human), UniProt P30542). Briefly: biochemical.
Test [2] addresses human A2a adenosine receptor (Homo sapiens (Human), UniProt P29274). Description: biochemical.

Amino acid sequences for entries named in this document (tags omitted).
UniProt P30542, whole entry: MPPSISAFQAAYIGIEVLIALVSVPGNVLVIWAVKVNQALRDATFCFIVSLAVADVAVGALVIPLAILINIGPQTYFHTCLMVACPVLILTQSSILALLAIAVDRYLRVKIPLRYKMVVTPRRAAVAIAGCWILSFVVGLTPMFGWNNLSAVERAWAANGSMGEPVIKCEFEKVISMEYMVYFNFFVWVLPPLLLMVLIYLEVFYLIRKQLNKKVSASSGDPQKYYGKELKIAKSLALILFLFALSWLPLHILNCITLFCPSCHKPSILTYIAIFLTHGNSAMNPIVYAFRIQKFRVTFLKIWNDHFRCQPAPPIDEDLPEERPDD

Where only a bound is given, the exact number is not on record here.

Our source for the Ki values is patent publication US10196396B2 (priority 2016, dated 2019).

As for `O[C@@H]1[C@H](O)CS[C@H]1c1cnc2c(NCCc3cccc(F)c3)nccn12` [Compound 127, (2S,3R,4S)-2-(8-((3-fluorophenethyl)amino)imidazo[1,2-a]pyrazin-3-yl)tetrahydrothiophene-3,4-diol], the Ki in test [1] and in test [2] was above 10 µM in each case.
In the case of `O[C@@H]1[C@H](O)CS[C@H]1c1cnc2c(NC3CC3c3ccccc3)nccn12` (stereo partly drawn) [Compound 129, (2S,3R,4S)-2-(8-((2-phenylcyclopropyl)amino)imidazo[1,2-a]pyrazin-3-yl)tetrahydrothiophene-3,4-diol], the Ki in test [1] and in test [2] was above 10 µM throughout.
Regarding `O[C@@H]1[C@H](O)CS[C@H]1c1cnc2c(C#Cc3cccc(Cl)c3)nccn12` [Compound 159, (2S,3R,4S)-2-(8-((3-chlorophenyl)ethynyl)imidazo[1,2-a]pyrazin-3-yl)tetrahydrothiophene-3,4-diol], the Ki is 1 to 10 µM in test [1] and above 10 µM in test [2].
The matching figures for `O[C@@H]1[C@H](O)CS[C@H]1c1nnc2c(NCCc3cccc(Cl)c3)nccn12` [Compound 24, (2S,3R,4S)-2-(8-((3-chlorophenethyl)amino)-[1,2,4]triazolo[4,3-a]pyrazin-3-yl)tetrahydrothiophene-3,4-diol]: above 10 µM and above 10 µM.
The matching figures for `CNC(=O)c1ccc(CNc2nccn3c([C@@H]4SC[C@@H](O)[C@H]4O)cnc23)cc1Cl` [Compound 126, 2-chloro-4-(((3-((2S,3R,4S)-3,4-dihydroxytetrahydrothiophen-2-yl)imidazo[1,2-a]pyrazin-8-yl)amino)methyl)-N-methylbenzamide]: above 10 µM and above 10 µM.
The matching figures for `O[C@@H]1[C@H](O)CS[C@H]1c1cnc2c(NCc3cccc(C(F)(F)F)c3)nccn12` [Compound 123, (2S,3R,4S)-2-(8-((3-(trifluoromethyl)benzyl)amino)imidazo[1,2-a]pyrazin-3-yl)tetrahydrothiophene-3,4-diol]: above 10 µM and above 10 µM.
In the case of `O[C@@H]1[C@H](O)CS[C@H]1c1nnc2c(N[C@H]3C[C@@H]3c3ccccc3)nccn12` [Compound 43, (2S,3R,4S)-2-(8-(((1S,2R)-2-phenylcyclopropyl)amino)-[1,2,4]triazolo[4,3-a]pyrazin-3-yl)tetrahydrothiophene-3,4-diol], the Ki in test [1] and in test [2] was above 10 µM in each case.
For the molecule `O[C@@H]1[C@H](O)CS[C@H]1c1cnc2c(N3CCN(Cc4ccc(F)cc4)CC3)nccn12` [Compound 119, (2S,3R,4S)-2-(8-(4-(4-fluorobenzyl)piperazin-1-yl)imidazo[1,2-a]pyrazin-3-yl)tetrahydrothiophene-3,4-diol], the Ki in test [1] and in test [2] was above 10 µM throughout.
On to `O[C@@H]1[C@H](O)CO[C@H]1c1nnc2c(NCc3cccc(Cl)c3)nccn12` [Compound 35, (2S,3R,4R)-2-(8-((3-chlorobenzyl)amino)-[1,2,4]triazolo[4,3-a]pyrazin-3-yl)tetrahydrofuran-3,4-diol], for which the Ki in test [1] and in test [2] was above 10 µM each time.
As for `O[C@@H]1[C@H](O)CS[C@H]1c1cnc2c(NCc3cccc(F)c3)nccn12` [Compound 122, (2S,3R,4S)-2-(8-((3-fluorobenzyl)amino)imidazo[1,2-a]pyrazin-3-yl)tetrahydrothiophene-3,4-diol], the Ki in test [1] and in test [2] was above 10 µM in each case.
Consider `O=S(=O)(Nc1nccn2c([C@@H]3SC[C@@H](O)[C@H]3O)cnc12)c1cccc(Cl)c1` [Compound 167, 3-chloro-N-(3-((2S,3R,4S)-3,4-dihydroxytetrahydrothiophen-2-yl)imidazo[1,2-a]pyrazin-8-yl)benzenesulfonamide], for which the inhibition constant (Ki) in test [1] and in test [2] was above 10 µM throughout.
On to `C[C@@H](Nc1nccn2c([C@@H]3SC[C@@H](O)[C@H]3O)cnc12)c1cccc(Cl)c1` [Compound 160, (2S,3R,4S)-2-(8-(((R)-1-(3-chlorophenyl)ethyl)amino)imidazo[1,2-a]pyrazin-3-yl)tetrahydrothiophene-3,4-diol], for which the Ki in test [1] is above 10 µM; in test [2] it was 1 to 10 µM.
For `O[C@@H]1[C@H](O)CS[C@H]1c1nnc2c(NCc3cc(Cl)ccc3Cl)nccn12` [Compound 56, (2S,3R,4S)-2-(8-((2,5-dichlorobenzyl)amino)-[1,2,4]triazolo[4,3-a]pyrazin-3-yl)tetrahydrothiophene-3,4-diol] the same measures were above 10 µM and above 10 µM.
The matching figures for `O[C@@H]1[C@H](O)CS[C@H]1c1cnc2c(NCc3ccccc3)nccn12` [Compound 120, (2S,3R,4S)-2-(8-(benzylamino)imidazo[1,2-a]pyrazin-3-yl)tetrahydrothiophene-3,4-diol]: above 10 µM and above 10 µM.
With `O[C@@H]1[C@H](O)CS[C@H]1c1cnc2c(NCc3cscn3)nccn12` [Compound 147, (2S,3R,4S)-2-(8-((thiazol-4-ylmethyl)amino)imidazo[1,2-a]pyrazin-3-yl)tetrahydrothiophene-3,4-diol], the Ki in test [1] and in test [2] was above 10 µM throughout.
Turning to `O[C@@H]1[C@H](O)CS[C@H]1c1nnc2c(NCc3ccc(Cl)cc3)nccn12` [Compound 48, (2S,3R,4S)-2-(8-((4-chlorobenzyl)amino)-[1,2,4]triazolo[4,3-a]pyrazin-3-yl)tetrahydrothiophene-3,4-diol], the Ki in test [1] and in test [2] was above 10 µM throughout.
`C[C@H](Nc1nccn2c([C@@H]3SC[C@@H](O)[C@H]3O)nnc12)c1cccc(Cl)c1` [Compound 45, (2S,3R,4S)-2-(8-(((S)-1-(3-chlorophenyl)ethyl)amino)-[1,2,4]triazolo[4,3-a]pyrazin-3-yl)tetrahydrothiophene-3,4-diol]: the Ki in test [1] and in test [2] was above 10 µM each time.
Regarding `O=C(Nc1nccn2c([C@@H]3SC[C@@H](O)[C@H]3O)cnc12)c1cccc(Cl)c1` [Compound 158, 3-chloro-N-(3-((2S,3R,4S)-3,4-dihydroxytetrahydrothiophen-2-yl)imidazo[1,2-a]pyrazin-8-yl)benzamide], the Ki in test [1] and in test [2] was above 10 µM in each case.
Take `CNC(=O)c1ccc(CNc2nccn3c([C@@H]4SC[C@@H](O)[C@H]4O)cnc23)cc1F` [Compound 125, 4-(((3-((2S,3R,4S)-3,4-dihydroxytetrahydrothiophen-2-yl)imidazo[1,2-a]pyrazin-8-yl)amino)methyl)-2-fluoro-N-methylbenzamide]: the inhibition constant Ki in test [1] and in test [2] was above 10 µM in each case.
With `O[C@@H]1[C@H](O)CS[C@H]1c1nnc2c(NCc3ccccc3I)nccn12` [Compound 62, (2S,3R,4S)-2-(8-((2-iodobenzyl)amino)-[1,2,4]triazolo[4,3-a]pyrazin-3-yl)tetrahydrothiophene-3,4-diol], the Ki in test [1] and in test [2] was above 10 µM each time.
In the case of `O[C@@H]1[C@H](O)CS[C@H]1c1cnc2c(NCc3cccc(I)c3)nccn12` [Compound 124, (2S,3R,4S)-2-(8-((3-iodobenzyl)amino)imidazo[1,2-a]pyrazin-3-yl)tetrahydrothiophene-3,4-diol], the Ki in test [1] and in test [2] was above 10 µM each time.
Turning to `O[C@@H]1[C@H](O)CS[C@H]1c1cnc2c(N3CCC(Cc4ccccc4)CC3)nccn12` [Compound 118, (2S,3R,4S)-2-(8-(4-benzylpiperidin-1-yl)imidazo[1,2-a]pyrazin-3-yl)tetrahydrothiophene-3,4-diol], the Ki in test [1] and in test [2] was above 10 µM throughout.
For `O[C@@H]1[C@H](O)CS[C@H]1c1cnc2c(NCc3cccc(Cl)c3)nccn12` [Compound 109, (2S,3R,4S)-2-(8-((3-chlorobenzyl)amino)imidazo[1,2-a]pyrazin-3-yl)tetrahydrothiophene-3,4-diol], the results for the Ki in test [1] and in test [2] were above 10 µM and 1 to 10 µM, respectively.
`O[C@@H]1[C@H](O)CS[C@H]1c1nnc2c(NCCc3cccc(Br)c3)nccn12` [Compound 25, (2S,3R,4S)-2-(8-((3-bromophenethyl)amino)-[1,2,4]triazolo[4,3-a]pyrazin-3-yl)tetrahydrothiophene-3,4-diol]: the Ki was above 10 µM in test [1] and 1 to 10 µM in test [2].
For `O=S(=O)(Nc1nccn2c([C@@H]3SC[C@@H](O)[C@H]3O)nnc12)c1cccc(Cl)c1` [Compound 34, 3-chloro-N-(3-((2S,3R,4S)-3,4-dihydroxytetrahydrothiophen-2-yl)-[1,2,4]triazolo[4,3-a]pyrazin-8-yl)benzenesulfonamide] the same measures were above 10 µM and above 10 µM.
The matching figures for `O[C@@H]1[C@H](O)CS[C@H]1c1cnc2c(NCCc3cccc(Cl)c3)nccn12` [Compound 146, (2S,3R,4S)-2-(8-((3-chlorophenethyl)amino)imidazo[1,2-a]pyrazin-3-yl)tetrahydrothiophene-3,4-diol]: above 10 µM and above 10 µM.
The matching figures for `O[C@@H]1[C@H](O)CS[C@H]1c1cnc2c(N[C@H]3C[C@@H]3c3ccccc3)nccn12` [Compound 162, (2S,3R,4S)-2-(8-(((1S,2R)-2-phenylcyclopropyl)amino)imidazo[1,2-a]pyrazin-3-yl)tetrahydrothiophene-3,4-diol]: above 10 µM and above 10 µM.
For `O[C@@H]1[C@H](O)CS[C@H]1c1nnc2c(NCCc3ccccc3F)nccn12` [Compound 50, (2S,3R,4S)-2-(8-((2-fluorophenethyl)amino)-[1,2,4]triazolo[4,3-a]pyrazin-3-yl)tetrahydrothiophene-3,4-diol], the Ki in test [1] and in test [2] was above 10 µM each time.
As to `O[C@@H]1[C@H](O)CS[C@H]1c1nnc2c(NCc3cccc(I)c3)nccn12` [Compound 6, (2S,3R,4S)-2-(8-((3-iodobenzyl)amino)-[1,2,4]triazolo[4,3-a]pyrazin-3-yl)tetrahydrothiophene-3,4-diol], the Ki in test [1] and in test [2] was above 10 µM each time.
Consider `O[C@@H]1[C@H](O)CS[C@H]1c1cnc2c(OCc3cccc(Cl)c3)nccn12` [Compound 155, (2S,3R,4S)-2-(8-((3-chlorobenzyl)oxy)imidazo[1,2-a]pyrazin-3-yl)tetrahydrothiophene-3,4-diol], for which the Ki in test [1] and in test [2] was above 10 µM throughout.
